Laboratory results: PubChem BioAssay AID1645882 (National Center for Advancing Translational Sciences (NCATS), 2021)
“And” between values parts separate entries of the source, which are not always exact repeats. Identical values can stand only once. This is a selection; strong and weak results do not stand in their true shares. Inconclusive results are not listed. The source made the active and inactive calls. Calls follow the shape of the dose curve; as a rule, active = well fitted inhibition curve with a large enough effect; inconclusive = small, poorly fitted or top-dose-only effect; inactive = no such curve, though single readings can be large or run the other way.

Sequences of proteins named here, by UniProt entry; tags and fusion partners are left off.
UniProt O95398, whole entry: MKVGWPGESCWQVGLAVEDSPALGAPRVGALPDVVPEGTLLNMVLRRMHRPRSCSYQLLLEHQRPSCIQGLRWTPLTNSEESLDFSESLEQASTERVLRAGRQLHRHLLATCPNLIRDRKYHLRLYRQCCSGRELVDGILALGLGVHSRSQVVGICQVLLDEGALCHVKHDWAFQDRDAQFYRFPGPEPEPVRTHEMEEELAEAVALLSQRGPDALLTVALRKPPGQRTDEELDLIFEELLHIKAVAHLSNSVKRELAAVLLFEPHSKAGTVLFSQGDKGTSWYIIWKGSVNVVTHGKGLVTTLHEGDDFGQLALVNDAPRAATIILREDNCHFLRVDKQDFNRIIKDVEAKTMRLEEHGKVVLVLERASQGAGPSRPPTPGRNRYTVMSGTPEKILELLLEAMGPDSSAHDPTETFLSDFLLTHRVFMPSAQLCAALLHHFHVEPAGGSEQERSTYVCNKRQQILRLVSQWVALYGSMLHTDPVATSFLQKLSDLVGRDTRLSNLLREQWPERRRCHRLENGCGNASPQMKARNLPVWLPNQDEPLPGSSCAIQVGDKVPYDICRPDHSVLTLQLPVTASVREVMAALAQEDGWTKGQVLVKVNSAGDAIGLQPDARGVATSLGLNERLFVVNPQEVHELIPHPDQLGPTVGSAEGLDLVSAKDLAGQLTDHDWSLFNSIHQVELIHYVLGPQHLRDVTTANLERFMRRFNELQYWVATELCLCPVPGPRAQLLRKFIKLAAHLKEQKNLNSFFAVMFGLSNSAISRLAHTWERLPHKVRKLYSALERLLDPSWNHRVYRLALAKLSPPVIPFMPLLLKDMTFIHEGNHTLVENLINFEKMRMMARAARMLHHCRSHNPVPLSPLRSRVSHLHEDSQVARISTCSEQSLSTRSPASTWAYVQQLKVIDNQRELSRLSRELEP

Target: Rap guanine nucleotide exchange factor 3 (Homo sapiens) (UniProt O95398)
Test: Validation qHTS for antagonist of cAMP-regulated guanine nucleotide exchange factor 3 (EPAC1);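 also: plate controls were DMSO for no effect and ATA control for full effect; nearly all actives have a fitted effect of over 75% in size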
Settings: EPAC1 Rap1B-BODIPY-GDP exchange, fluorescence; at 320 µM (top of the series) unless noted
Text: Assay Provider (PI): Xiaodong Cheng Ph.D.
The University of Texas Medical Branch, […], TX
In multi-cellular eukaryotic organisms, the effects of cAMP are transduced by two ubiquitously-expressed intracellular cAMP receptors, the classic protein kinase A/cAMP-dependent protein kinase (PKA/cAPK) and the more recently discovered exchange protein directly activated by cAMP/cAMP-regulated guanine nucleotide exchange factor (EPAC/cAMP-GEF). Both PKA and EPAC are ubiquitously expressed in all tissues, and an increase in intracellular cAMP levels will lead to the activation of both PKA and EPAC. Therefore, careful dissections of the individual role and relative contribution of EPAC and PKA within the overall cAMP signaling in various model systems are critical for further elucidating the mechanism of cAMP signaling. To date no EPAC-specific antagonists and agonist, as well as isoform-specific agonists have been reported, and developing EPAC-specific pharmacological probes to determine the physiological functions that EPAC play in the overall cAMP-mediated signaling remains a major challenge within the research field. […]
This qHTS will be used to screen the Molecular Libraries Small Molecule Repository (MLSMR) as a concentration-titration series using the NCGC unique quantitative screening (qHTS) platform to find activators for EPAC1. […] Activators are identified by monitoring the change in fluorescence signal as the exchanged free BODIPY-GDP has a reduced fluorescence compared to Rap1-bound BODIPY-GDP. […]
Briefly, three uL of reagents (100 nM EPAC1, 250 nM RAP1B-BODIPY-GDP, 50 uM GDP) were dispensed into a 1536-well Greiner black solid-bottom medium binding assay plate. […] The assay plates were read at 5 minute intervals for 30 minutes in the ViewLux plate reader using 480nm excitation and 540nm emission filters. […]

| SMILES | activity change, negative = inhibition |
| --- | --- |
| CCC(=O)N(c1ccccc1)C1(COC)CCN(CCc2cccs2)CC1 | inactive: 8.79% |
| CCC(=O)N(c1ccccc1)C1(COC)CCN(CCn2nnn(CC)c2=O)CC1 | inactive: 31.8% |
| CN(CCCl)CCCl | inactive: 6.63% [at 150 µM] and inactive: 16.4% [at 150 µM] |
